Results as given in publication PMC8488277, “Permeability Data of Organosulfur Garlic Compounds Estimated by Immobilized Artificial Membrane Chromatography: Correlation Across Several Biological Barriers” (Frontiers in Chemistry, 2021).

Test: IAM-HPLC chromatographic capacity factor (log k' IAM)
Type: physicochemical
Conditions: IAM.PC.MG 12 µm column; isocratic ACN/0.035 M phosphate buffer pH 6.8 (30:70 v/v), 0.5 ml/min; k'=(Tr–T0)/T0; mean of 2–4 determinations
Procedure: Chromatographic analysis was performed using a Shimadzu LC 20A chromatograph coupled to a diode array detector, operated at a range of 210–260 nm, depending on the analyzed compound. A biomimetic commercially available column was used in all experiments: IAM. PC.MG12 µm (150 × 4.6 mm) was purchased from Regis Chemical Company (Morton Grove, IL).
OSC separation conditions under IAM-HPLC were adapted from [Luco et al. (2003]) and [Barbato et al. (1998]), with modifications. The chromatographic mode consisted in an isocratic elution used as the mobile phase ACN/0.035 M phosphate buffer −pH 6.8− (30:70 (v/v)) at 0.5 ml min^−1. The column dead time (T0) was estimated by ascorbic acid retention time which was measured at 210 nm. The obtained retention data were used to calculate the chromatographic parameter corresponding to the capacity factor k’ as follows: k’ = (Tr–T0)/T0. All capacity factors given represent the mean of 2–4 determinations of each sample solution.
For this study, we considered 28 phytochemical compounds containing sulfur-based groups. […] Most of these compounds are garlic-derived substances with bioactive functions. […] We chose them because of their bioactive functionality and their similar metabolism within the plants and human body. […]

(+)-S-allylcysteine sulfoxide [Alliin]
Log (k'IAM): −1.710
